The values that follow come from ChEMBL document CHEMBL5500382, “Discovery of potent small molecule ubiquitin-specific protease 10 inhibitors with anti-hepatocellular carcinoma activity through regulating YAP expression” (Eur J Med Chem, 2024).

Sequences of proteins named here, by UniProt entry; tags and fusion partners are left off.
UniProt Q14694, whole entry: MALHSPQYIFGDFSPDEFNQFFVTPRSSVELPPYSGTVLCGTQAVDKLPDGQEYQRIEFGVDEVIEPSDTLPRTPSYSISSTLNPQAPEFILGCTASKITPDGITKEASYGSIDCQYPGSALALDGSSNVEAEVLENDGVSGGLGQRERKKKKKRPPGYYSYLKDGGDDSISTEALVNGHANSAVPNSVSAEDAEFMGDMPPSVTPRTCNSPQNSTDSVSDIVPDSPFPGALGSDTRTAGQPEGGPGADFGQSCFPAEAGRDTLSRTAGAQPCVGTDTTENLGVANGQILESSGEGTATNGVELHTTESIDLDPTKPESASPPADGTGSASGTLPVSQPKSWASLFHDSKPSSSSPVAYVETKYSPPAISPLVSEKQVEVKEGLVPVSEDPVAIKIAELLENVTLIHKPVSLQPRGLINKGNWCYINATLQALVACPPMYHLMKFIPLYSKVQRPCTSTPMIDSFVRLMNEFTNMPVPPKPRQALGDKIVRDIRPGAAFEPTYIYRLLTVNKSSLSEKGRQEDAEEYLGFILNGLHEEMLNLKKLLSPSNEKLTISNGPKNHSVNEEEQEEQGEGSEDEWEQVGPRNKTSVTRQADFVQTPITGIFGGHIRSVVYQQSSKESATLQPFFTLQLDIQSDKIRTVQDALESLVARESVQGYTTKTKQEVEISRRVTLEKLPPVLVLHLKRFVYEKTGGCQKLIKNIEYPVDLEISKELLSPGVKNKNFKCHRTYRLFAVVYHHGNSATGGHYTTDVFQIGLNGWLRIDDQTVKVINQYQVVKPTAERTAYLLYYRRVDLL

Assay [1] deals with Ubiquitin carboxyl-terminal hydrolase 10 (Homo sapiens, UniProt Q14694). The following applies: dose 10-10000 nM, time 60.0 min.
Assay [2] relates to Huh-7. Nature of the assay: cells. The note with it: Homo sapiens, Huh-7, 24 h, read-out: Activity.
Assay [3] concerns Huh-7. Nature of the assay: cells. The following applies: Homo sapiens, Huh-7, 24 h, read-out: Activity. This is another data set of the same source.
Assay [4] concerns Huh-7. Put plainly: cells. The note with it: Homo sapiens, Huh-7, 24 h, read-out: Activity. The source holds these as a separate data set.
Assay [5] deals with Huh-7. Nature of the assay: cells. The note with it: Homo sapiens, Huh-7, 24 h, read-out: Activity. This is another data set of the same source.
Assay [6] deals with Huh-7. Nature of the assay: cells. The note with it: Homo sapiens, Huh-7, 24 h, read-out: Activity. The source holds these as a separate data set.

For `Cc1ccc2c(=O)c(-c3nc(-c4ccccc4C)no3)cn(CC(=O)Nc3c(F)cccc3F)c2n1`, in assay [1], the inhibition entry is “Dose-Dependent Effect”.

Regarding `Cc1ccc2c(=O)c(-c3nc(-c4ccccc4C)no3)cn(CC(=O)NCCc3ccc(Cl)cc3)c2c1`, the viability at 10 µM in assay [2] is 61.4%. For the same compound, the viability at 5 µM in assay [3] was determined as 88.9%. Also, the viability at 2.5 µM in assay [4] worked out at 94.4%. The viability at 1.25 µM in assay [5] came out at 93.8%. Further, the viability at 0.625 µM in assay [6] turned out to be 92.8%.
